Assays:
[1] = target: 5-hydroxytryptamine receptor 2B (Rattus norvegicus, UniProt P30994); experiment: Affinity against 5-hydroxytryptamine 2B receptor in the isolated rat stomach fundus; assay type: tissue-based; conditions: read-out: pA2 (converted)
[2] = Equilibrium constant for DNB complex formation; design: unit not given here

Protein sequences, listed by entry. Tags and fused reporters are not part of them.
UniProt P30994, whole entry: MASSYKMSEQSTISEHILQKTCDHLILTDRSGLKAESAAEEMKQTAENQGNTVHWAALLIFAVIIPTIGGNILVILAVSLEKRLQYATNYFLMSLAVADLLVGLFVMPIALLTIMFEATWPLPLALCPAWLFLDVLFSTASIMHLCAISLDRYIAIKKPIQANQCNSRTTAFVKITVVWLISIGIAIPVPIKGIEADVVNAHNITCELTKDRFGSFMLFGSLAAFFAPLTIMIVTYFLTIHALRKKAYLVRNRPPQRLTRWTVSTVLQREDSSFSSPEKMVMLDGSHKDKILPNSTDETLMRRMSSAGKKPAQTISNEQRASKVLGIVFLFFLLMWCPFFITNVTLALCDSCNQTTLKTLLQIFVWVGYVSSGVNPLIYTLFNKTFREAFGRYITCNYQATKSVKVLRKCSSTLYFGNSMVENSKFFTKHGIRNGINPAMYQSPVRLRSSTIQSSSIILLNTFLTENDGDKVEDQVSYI

COc1ccccc1CC(C)N (stereo not given)
Kb [1]: 2880 nM
KDNB [2]: 0.83

COc1cccc(CC(C)N)c1OC (stereo not given)
Kb [1]: 2880 nM

COc1ccc(OC)c(CC(C)N)c1 (stereo not given)
Kb [1]: 148 nM
KDNB [2]: 1.39
